For assay [1], the target named is T1, recombinant human soluble endoglin (sEng; Glu26-Gly586) (human, UniProt P17813 26-586).
T1 construct: human endoglin (CD105), extracellular domain, Glu26-Gly586; The same bought protein was the probe of the array and the analyte of the BLI; also called recombinant human endoglin/CD105 protein; source: bought: R&D Systems (1097-EN), purified recombinant
T1 sequence (looked up): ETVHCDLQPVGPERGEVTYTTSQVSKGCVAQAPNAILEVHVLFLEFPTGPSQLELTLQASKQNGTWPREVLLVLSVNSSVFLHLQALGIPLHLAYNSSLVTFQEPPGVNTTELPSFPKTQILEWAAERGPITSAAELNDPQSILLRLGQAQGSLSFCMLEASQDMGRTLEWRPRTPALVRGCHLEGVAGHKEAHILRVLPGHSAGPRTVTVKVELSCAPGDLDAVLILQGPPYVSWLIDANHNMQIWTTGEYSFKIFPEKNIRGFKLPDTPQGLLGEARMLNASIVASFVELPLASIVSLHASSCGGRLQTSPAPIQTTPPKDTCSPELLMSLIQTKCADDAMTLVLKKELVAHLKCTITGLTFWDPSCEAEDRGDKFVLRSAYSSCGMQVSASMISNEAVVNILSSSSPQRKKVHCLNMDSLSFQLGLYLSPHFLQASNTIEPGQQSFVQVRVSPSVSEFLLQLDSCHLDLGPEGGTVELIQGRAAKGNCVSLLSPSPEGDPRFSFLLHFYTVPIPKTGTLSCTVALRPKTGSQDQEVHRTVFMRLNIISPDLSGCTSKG
The assay is described as follows: peptide or protein array; ProtoArray human protein Microarray v5.0 (over 9000 human proteins arrayed) probed with recombinant sEng in two replicates; detection with anti-endoglin mAb SN6h and HRP secondary antibody; hits with Z-score >=2.0 in both arrays. Conditions: both partners purified.

Assay [2] has as its target T1, recombinant human soluble endoglin …. The assay is described as follows: BLI; BLItz; TRIM21 with N-terminal 6xHis (5.4 µM) loaded on Ni-NTA biosensor tips; 4.1 µM sEng or 0.1% BSA in PBS (negative control); 300 s association, 300 s dissociation. Conditions: both partners purified.

B1: Tripartite motif-containing 21 (TRIM21) (arrayed on the ProtoArray) (natural protein, human, UniProt P19474-1 1-475, looked up)
chain: MASAARLTMMWEEVTCPICLDPFVEPVSIECGHSFCQECISQVGKGGGSVCPVCRQRFLLKNLRPNRQLANMVNNLKEISQEAREGTQGERCAVHGERLHLFCEKDGKALCWVCAQSRKHRDHAMVPLEEAAQEYQEKLQVALGELRRKQELAEKLEVEIAIKRADWKKTVETQKSRIHAEFVQQKNFLVEEEQRQLQELEKDEREQLRILGEKEAKLAQQSQALQELISELDRRCHSSALELLQEVIIVLERSESWNLKDLDITSPELRSVCHVPGLKKMLRTCAVHITLDPDTANPWLILSEDRRQVRLGDTQQSIPGNEERFDSYPMVLGAQHFHSGKHYWEVDVTGKEAWDLGVCRDSVRRKGHFLLSSKSGFWTIWLWNKQKYEAGTYPQTPLHLQVPPCQVGIFLDYEAGMVSFYNITDHGSLIYSFSECAFTGPLRPFFSPGFNDGGKNTAPLTLCPLNIGSQGSTDY
notes: human TRIM21, E3 ubiquitin-protein ligase; source: bought: ProtoArray human protein Microarray v5.0 (Life Technologies), individually purified and arrayed
On to B1, for which the binding result in assay [1] was “binds”.

B2: human full-length TRIM21 protein (RO52; 6His-tag, N-terminus, LSBio) (enzyme, UniProt P19474 1-475, looked up)
chain: MASAARLTMMWEEVTCPICLDPFVEPVSIECGHSFCQECISQVGKGGGSVCPVCRQRFLLKNLRPNRQLANMVNNLKEISQEAREGTQGERCAVHGERLHLFCEKDGKALCWVCAQSRKHRDHAMVPLEEAAQEYQEKLQVALGELRRKQELAEKLEVEIAIKRADWKKTVETQKSRIHAEFVQQKNFLVEEEQRQLQELEKDEREQLRILGEKEAKLAQQSQALQELISELDRRCHSSALELLQEVIIVLERSESWNLKDLDITSPELRSVCHVPGLKKMLRTCAVHITLDPDTANPWLILSEDRRQVRLGDTQQSIPGNEERFDSYPMVLGAQHFHSGKHYWEVDVTGKEAWDLGVCRDSVRRKGHFLLSSKSGFWTIWLWNKQKYEAGTYPQTPLHLQVPPCQVGIFLDYEAGMVSFYNITDHGSLIYSFSECAFTGPLRPFFSPGFNDGGKNTAPLTLCPLNIGSQGSTDY
notes: human TRIM21 (RO52), full-length; No catalogue number is printed; also called TRIM21/6xHis at the N-terminus; R052; source: bought: LSBio; not shown: His6, N-terminal, kept
B2: the binding result in assay [2] is recorded as “binds”.
